Measurements taken from patent EP4129319A1, “PORE-FORMING ANTIMICROBIAL PEPTIDES” (priority 2021, dated 2023).

Experiments:
Calcein leakage assay = type: biochemical; settings: POPC:POPG (1:1 mol/mol) LUVs
Procedure: Chemicals. […] (Prague, Czech Republic), and Caslo ApS (Kongens Lyngby, Denmark). […] The bacterial stock was stored at -80°C.
Calcein leakage assay. Pore-forming activity of the peptides was tested by their ability to leak the self-quenching fluorescent dye calcein entrapped within POPC:POPG (1:1 mol/mol) large unilamellar vesicles (LUVs). After mixing DiD to the lipid mixture (in the ratio 1:500 mol/mol), a thin lipid film was created by evaporating of the chloroform, traces of which were removed by desiccating overnight. The lipid film was then dissolved in calcein buffer, followed by vigorous vortexing. The lipid suspension was subsequently subjected to 10 freeze-thaw cycles. To obtain uniform LUVs, the sample was passed 50 times back and forth through an extruder stacked with 100 nm pore size polycarbonate membrane filter. Afterwards, the untrapped calcein was removed on a HiTrap Desalting Column (with Sephadex G-25 Superfine resin) by washing with PBS buffer. The concentration of the lipid suspension was then adjusted to 0.02 mM. The concentration of the peptide solution was 0.1 mM. The inventors monitored the peptide-induced release of calcein from LUVs by the increase in fluorescence intensity after adding increasing amounts of peptides to the LUVs under constant stirring at 25 °C. The investigated range of peptide/lipid molecular ratio was from 1:100 to 1:10. The excitation and emission wavelengths were set to 495 nm and 520 nm, respectively. Maximum fluorescence intensity was obtained by disrupting all the vesicles in the end by adding 10% Triton X-100. Experiments were performed in triplicates with independently prepared lipid vesicles.

[1] = Neutral red uptake assay (cytotoxicity); type: cell-based; settings: highest tested concentration 150 µM; read-out: cytotoxic concentration against human dermal fibroblasts (no effect on viability up to)
Procedure: Neutral red uptake assay. To evaluate the cytotoxicity of the peptides against human dermal fibroblast (HDF) cell lines, the inventors purchased the neutral red uptake assay from Essence Line (Praha, Czech Republic). The initial cell culture was sub-cultured in supplemented Dulbecco's Modified Eagle Medium (DMEM) and diluted to a cell density of 1 × 10^5 cells/mL. The diluted culture was then seeded into the wells (1 × 10^4

Substance: KKKKVKKVVKKVFSFVDSVDSDVSDVKKKK-NH2 [KDFC16+9SV-NH2]
- Extent of leakage (in percentage) at increasing peptide-to-lipid ratio (mol/mol) 1:10 (Calcein leakage assay; peptide-to-lipid ratio 1:10 (mol/mol)): No leakage
- Extent of leakage (in percentage) at increasing peptide-to-lipid ratio (mol/mol) 1:20 (Calcein leakage assay; peptide-to-lipid ratio 1:20 (mol/mol)): No leakage
- Extent of leakage (in percentage) at increasing peptide-to-lipid ratio (mol/mol) 1:50 (Calcein leakage assay; peptide-to-lipid ratio 1:50 (mol/mol)): No leakage
- Extent of leakage (in percentage) at increasing peptide-to-lipid ratio (mol/mol) 1:100 (Calcein leakage assay; peptide-to-lipid ratio 1:100 (mol/mol)): No leakage
- CC50 [1]: > 150 µM

Ends that are not written are not given here.
